Assay: Inhibition of carnitine palmitoyltransferase

For CCCCCCCCCCCCCCCC[C@H]1C[N+](C)(C)CCO[P@](C)(=O)O1, which IC50 is on record?
Its IC50 is over 100 µM.

With CCCCCCCCCCCCCCCC[C@H]1C[N+](C)(C)CCO[P@@](C)(=O)O1 as the molecule, how does the IC50 read?
The IC50 was over 100 µM.
